Measured values published in PubChem BioAssay AID588354 (The Scripps Research Institute Molecular Screening Center, 2011).
The entries are a selection whose mix differs from that of the whole data set. Some structures show a salt or complex split into parts, the way the source records it. Calls of active or inactive are those of the source.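 The calls were made as follows: active = inhibition above the campaign mean plus 3 SD, with each screening campaign given its own cutoff (cut at about 60% in these data); inactive = the rest.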

Sequences of proteins named here, by UniProt entry; tags and fusion partners are left off.
UniProt Q15788, whole entry: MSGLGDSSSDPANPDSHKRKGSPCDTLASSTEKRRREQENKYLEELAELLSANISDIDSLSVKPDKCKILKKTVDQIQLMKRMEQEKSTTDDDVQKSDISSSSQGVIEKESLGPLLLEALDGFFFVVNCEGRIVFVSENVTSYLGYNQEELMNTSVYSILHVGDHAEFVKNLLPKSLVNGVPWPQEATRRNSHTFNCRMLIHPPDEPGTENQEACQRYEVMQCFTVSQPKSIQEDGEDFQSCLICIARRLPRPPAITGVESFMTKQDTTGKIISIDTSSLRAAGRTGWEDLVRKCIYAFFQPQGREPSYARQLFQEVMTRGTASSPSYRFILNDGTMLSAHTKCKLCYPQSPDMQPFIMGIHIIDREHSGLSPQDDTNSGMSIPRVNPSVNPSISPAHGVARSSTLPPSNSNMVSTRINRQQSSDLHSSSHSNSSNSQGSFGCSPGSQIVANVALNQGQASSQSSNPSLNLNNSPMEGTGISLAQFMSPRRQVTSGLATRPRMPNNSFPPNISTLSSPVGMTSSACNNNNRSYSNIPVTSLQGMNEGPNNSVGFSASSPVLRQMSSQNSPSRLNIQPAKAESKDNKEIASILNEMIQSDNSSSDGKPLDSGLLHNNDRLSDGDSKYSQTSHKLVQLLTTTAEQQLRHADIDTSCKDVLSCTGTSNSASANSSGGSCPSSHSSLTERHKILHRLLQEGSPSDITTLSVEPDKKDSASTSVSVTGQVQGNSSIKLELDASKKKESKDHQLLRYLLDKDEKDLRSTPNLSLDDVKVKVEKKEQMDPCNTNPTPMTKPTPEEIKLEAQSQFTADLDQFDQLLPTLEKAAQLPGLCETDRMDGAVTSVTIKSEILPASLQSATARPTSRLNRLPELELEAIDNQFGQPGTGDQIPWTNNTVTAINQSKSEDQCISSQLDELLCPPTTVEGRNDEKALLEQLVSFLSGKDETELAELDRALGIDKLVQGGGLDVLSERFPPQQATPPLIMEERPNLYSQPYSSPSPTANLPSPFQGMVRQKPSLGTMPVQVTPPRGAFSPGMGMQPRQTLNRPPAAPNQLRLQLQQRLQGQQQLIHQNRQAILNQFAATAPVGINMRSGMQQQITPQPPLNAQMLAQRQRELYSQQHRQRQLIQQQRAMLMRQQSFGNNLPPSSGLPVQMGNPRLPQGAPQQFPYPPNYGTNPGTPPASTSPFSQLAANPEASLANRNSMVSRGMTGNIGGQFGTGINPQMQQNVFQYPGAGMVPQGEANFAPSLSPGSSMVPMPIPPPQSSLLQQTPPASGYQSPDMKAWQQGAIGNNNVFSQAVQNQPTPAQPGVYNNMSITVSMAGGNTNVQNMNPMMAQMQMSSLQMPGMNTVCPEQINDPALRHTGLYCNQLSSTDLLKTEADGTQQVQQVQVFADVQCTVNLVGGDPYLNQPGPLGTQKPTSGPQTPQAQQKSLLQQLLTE

molecular target: Nuclear receptor coactivator 1 (Homo sapiens) (UniProt Q15788); assay: SRC1 coactivator transcriptional activity inhibitors, primary screen, cell-based, luminescence (AID 588354); conditions: HEK293 GAL4-SRC1 luciferase reporter, at 3.6 µM, hits give high values;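 also: 0% = DMSO treated cells and 100% = gossypol at 36 µM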

| SMILES | inhibition |
| --- | --- |
| CC(C)(C)c1ccc(OP(C)(=O)Nc2ccc(SC(F)(F)F)cc2)cc1 (stereo not given) | inactive: 2.6% |
| O=[N+]([O-])c1ccc2c(c1)C=Nc1ccccc1O2 | inactive: 2.88% |
| O=[N+]([O-])c1cc([N+](=O)[O-])c(Nc2cccnc2)c([N+](=O)[O-])c1 | inactive: -7.26% |
| COc1ccc(OP(C)(=O)Nc2cccc(F)c2)cc1 (stereo not given) | inactive: 3.28% |
| COc1ccccc1OP(C)(=O)Nc1cc(Cl)ccc1C (stereo not given) | inactive: 4.78% |
| Cc1cc(C)cc(OP(C)(N)=O)c1 (stereo not given) | inactive: -7.43% |
| CCOC(=O)c1ccc(NP(C)(=O)Oc2ccccc2)cc1 (stereo not given) | inactive: -13.2% |
| Cc1ccc(NP(C)(=O)Oc2ccccc2)c(C)c1 (stereo not given) | inactive: -33.2% |
| COc1ccccc1OP(C)(=O)Nc1ccc(C)cc1 (stereo not given) | inactive: 1.39% |
| CCN(CC)CCCOC(=O)C(O)(c1ccccc1)c1ccccc1 | inactive: 7.9% |
| Cc1cc(C)cc(OP(C)(=O)Nc2ccc(SC(F)(F)F)cc2)c1 (stereo not given) | inactive: 10.5% |
| CP(=O)(NC(=O)Nc1ccccc1)Oc1ccccc1 (stereo not given) | inactive: 6.55% |
| CCc1ccc(OP(C)(=O)N2CCN(c3ccc([N+](=O)[O-])cc3)CC2)cc1 (stereo not given) | inactive: 3.83% |
| CP(=O)(Oc1ccccc1)OC(c1ccccc1)C(F)(F)F (stereo not given) | inactive: -8.58% |
| Cc1cccc(C)c1OP(C)(=O)Nc1ccc(SC(F)(F)F)cc1 (stereo not given) | inactive: -13.3% |
| Cc1ccc(Nc2c([N+](=O)[O-])cc([N+](=O)[O-])cc2[N+](=O)[O-])cc1 | inactive: -4.18% |
| CP(=O)(Nc1ccc(SC(F)(F)F)cc1)Oc1ccc(Cl)cc1 (stereo not given) | inactive: -2.04% |
| CP(=O)(Nc1ccccn1)Oc1ccc(Cl)cc1 (stereo not given) | inactive: 5.13% |
| CCOP(C)(=S)SCC(=O)NC(C)C(=O)O (stereo not given) | inactive: -13.7% |
| CCOC(=O)c1ccc(NP(C)(=O)Oc2ccc(OC)cc2)cc1 (stereo not given) | inactive: 7.81% |
| O=[N+]([O-])c1cc([N+](=O)[O-])c(O)c([N+](=O)[O-])c1.c1ccc(Oc2ccncc2)cc1 | inactive: -3.86% |
| COc1ccccc1OP(C)(=O)Nc1ccccc1 (stereo not given) | inactive: 8.13% |
| CP(=O)(Nc1ccccc1Br)Oc1ccccc1 (stereo not given) | inactive: -7.98% |
| CP(=S)(Nn1cnnc1)Oc1ccccc1 (stereo not given) | inactive: -13.3% |
| CP(=O)(OC12CC3CC(CC(C3)C1)C2)OC12CC3CC(CC(C3)C1)C2 | inactive: 0.24% |

| SMILES | inhibition |
| --- | --- |
| CCOC(=O)c1ccc(NP(C)(=O)Oc2ccc(Cl)cc2)cc1 (stereo not given) | inactive: -18.1% |
| CCc1ccc(OP(C)(=O)Nc2cccnc2)cc1 (stereo not given) | inactive: -41.6% |
| CP(=O)(Oc1ccccc1)N1CCOC1=O (stereo not given) | inactive: -4.3% |
| O=C(OCCCN1CCCC1)C(O)(c1ccccc1)C1CCCCC1 (stereo not given) | inactive: 2.69% |
| COc1ccccc1OP(C)(=O)Nc1c(C)n(C)n(-c2ccccc2)c1=O (stereo not given) | inactive: -4.83% |
| COc1ccc(OP(C)(=O)Nc2ccc(Br)cc2)cc1 (stereo not given) | inactive: -10.8% |
| CCN(CC)CC(O)COC(=O)C(O)(c1ccccc1)C1CCCCC1 (stereo not given) | inactive: 3.77% |
| CN(C)C(=O)c1c([N+](=O)[O-])cc([N+](=O)[O-])cc1[N+](=O)[O-] | inactive: -5.76% |
| CP(=O)(Nc1ccc(Cl)cc1)Oc1ccc(F)cc1 (stereo not given) | inactive: -11.2% |
| COc1ccccc1OP(C)(=O)Nc1ccccc1Br (stereo not given) | inactive: -20.1% |
| CC(C)(C)c1ccc(OP(C)(=O)O)cc1 | inactive: 5.99% |
| CN(C)CCOC(=O)C(O)(c1ccccc1)C1CCCC1 (stereo not given) | inactive: -7.5% |
| COc1ccc(OP(C)(=O)Nc2ccccn2)cc1 (stereo not given) | inactive: 12.1% |
| COc1ccccc1OP(C)(=O)Nc1ccc(Br)cc1 (stereo not given) | inactive: 5% |
| CCc1ccc(OP(C)(=O)O)cc1 | inactive: 3.3% |
| COc1ccccc1OP(C)(=O)Nc1ccc(C)cc1C (stereo not given) | inactive: 5.91% |
| CP(=O)(Nc1ccccn1)Oc1ccccc1 (stereo not given) | inactive: -11.9% |
| Cc1c(NP(C)(=O)Oc2ccc(C(C)C)cc2)c(=O)n(-c2ccccc2)n1C (stereo not given) | inactive: -20.8% |
| O=[N+]([O-])c1cc([N+](=O)[O-])c(Nc2ccccn2)c([N+](=O)[O-])c1 | inactive: -29.9% |
| COc1ccc(OP(C)(=O)Nc2ccccc2Br)cc1 (stereo not given) | inactive: 10.3% |
| COc1ccccc1OP(C)(=O)Nc1ccc(C)c(C)c1 (stereo not given) | inactive: 3.58% |
| Cc1cc(C)cc(OP(C)(=O)Nc2cccc(C(F)(F)F)c2)c1 (stereo not given) | inactive: -1.89% |
| O=C1C(O)=C([N+](=O)[O-])C(=O)C(O)=C1[N+](=O)[O-] | inactive: -12.1% |
| CP(=O)(Nc1ccc(Cl)cc1Cl)Oc1ccccc1 (stereo not given) | inactive: 5.26% |
| CCCCCCCCCCCCCCCC1C[N+](C)(C)CCOP(C)(=O)O1 (stereo not given) | inactive: -5.62% |

| SMILES | inhibition |
| --- | --- |
| CP(=O)(OCCOc1ccccc1)OCCOc1ccccc1 | inactive: 2.77% |
| COc1ccc(OP(C)(=O)Nc2ccc(SC(F)(F)F)cc2)cc1 (stereo not given) | inactive: -3.76% |
| CCOC(=O)c1ccc(NP(C)(=O)Oc2ccc(F)cc2)cc1 (stereo not given) | inactive: -2.7% |
| O=[N+]([O-])c1cc([N+](=O)[O-])c(OC2CCCCC2O)c([N+](=O)[O-])c1 (stereo not given) | inactive: 10.9% |
| CCCCCOc1ccc(NP(C)(=O)Oc2ccc(Cl)cc2Cl)cc1 (stereo not given) | inactive: 11% |
| CP(=O)(Nc1ccccc1)Oc1ccc(F)cc1 (stereo not given) | inactive: -28.3% |
| CCN(CC)CCCOC(=O)C(O)(c1ccccc1)C1CCCCC1 (stereo not given) | inactive: 6.76% |
| Cc1c([N+](=O)[O-])cc([N+](=O)[O-])c(Br)c1[N+](=O)[O-] | inactive: -4.26% |
| CC(C)c1ccc(OP(C)(=O)Nc2ccc(SC(F)(F)F)cc2)cc1 (stereo not given) | inactive: -4.44% |
| CP(=O)(Nc1ccccc1F)Oc1ccccc1 (stereo not given) | inactive: -26.1% |
| O=[N+]([O-])c1cc([N+](=O)[O-])c(Nc2ccc(Cl)cc2)c([N+](=O)[O-])c1 | inactive: -22.1% |
| COc1ccc2c(c1O)-c1c(O)c(OC)cc3c1[C@H](C2)[N+](C)(C)CC3.O=[N+]([O-])c1cc([N+](=O)[O-])c([O-])c([N+](=O)[O-])c1[O-] | inactive: -2.76% |
| O=C(OCCN1CCN(CCOCc2ccccc2)CC1)C(O)(c1ccccc1)c1ccccc1 | inactive: 3.54% |
| O=C(OC1CN2CCC1CC2)c1ccc([N+](=O)[O-])cc1 (stereo not given) | inactive: -28.3% |
| CCOP(C)(=S)SCC(=O)NC(C)(CC)C(=O)O (stereo not given) | inactive: 0.18% |
| CP(=O)(Nc1ccc(SC(F)(F)F)cc1)Oc1ccc(F)cc1 (stereo not given) | inactive: -5.12% |
| Cc1ccccc1NP(C)(=O)Nc1ccccc1C | inactive: -20.6% |
| CP(=O)(Nc1ccc2c(c1)OCCO2)Oc1ccccc1 (stereo not given) | inactive: -13.9% |
| COc1ccc(NP(C)(=O)Oc2ccccc2OC)cc1 (stereo not given) | inactive: -15.5% |
| CN(C)CCOC(=O)C(O)(c1ccccc1)C1CCCCC1 (stereo not given) | inactive: 1.02% |
| COc1ccc(OP(C)(=O)Nc2cccc(Br)c2)cc1 (stereo not given) | inactive: 2.21% |
| Cc1c(C(c2ccc3c(c2)OCO3)c2c(C)n(C)n(-c3ccccc3)c2=O)c(=O)n(-c2ccccc2)n1C.O=[N+]([O-])c1cc([N+](=O)[O-])c(O)c([N+](=O)[O-])c1 | inactive: -2.72% |
| O=[N+]([O-])c1cc([N+](=O)[O-])c(NCC2CCS(=O)(=O)C2)c([N+](=O)[O-])c1 (stereo not given) | inactive: -8.51% |
| Cc1cc(-c2cccc3ccccc23)c(C)cn1.O=[N+]([O-])c1cc([N+](=O)[O-])c(O)c([N+](=O)[O-])c1 | inactive: -10.9% |
| O=[N+]([O-])c1ccc(OP2(=O)COCCO2)cc1 (stereo not given) | inactive: -25.6% |
